From PMC12155096 (International Journal of Molecular Sciences, 2025)

Chains of the proteins cited; added tags and fusions are not shown.
UniProt P08659, whole entry, looked up: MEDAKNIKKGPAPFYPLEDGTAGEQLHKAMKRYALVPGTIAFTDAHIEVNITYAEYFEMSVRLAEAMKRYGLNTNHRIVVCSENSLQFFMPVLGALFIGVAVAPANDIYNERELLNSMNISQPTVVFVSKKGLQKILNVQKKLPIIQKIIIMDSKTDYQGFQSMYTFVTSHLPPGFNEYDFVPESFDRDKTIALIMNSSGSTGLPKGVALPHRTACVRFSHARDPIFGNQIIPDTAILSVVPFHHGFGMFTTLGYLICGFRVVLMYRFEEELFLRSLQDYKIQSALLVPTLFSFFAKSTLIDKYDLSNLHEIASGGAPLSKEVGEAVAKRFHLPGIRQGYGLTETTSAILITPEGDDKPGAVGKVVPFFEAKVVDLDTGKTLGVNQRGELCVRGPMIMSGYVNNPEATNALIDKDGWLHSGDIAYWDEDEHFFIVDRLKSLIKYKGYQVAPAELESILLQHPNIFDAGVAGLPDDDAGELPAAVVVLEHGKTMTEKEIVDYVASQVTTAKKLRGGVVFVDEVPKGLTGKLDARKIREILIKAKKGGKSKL
UniProt P05177, whole entry, looked up: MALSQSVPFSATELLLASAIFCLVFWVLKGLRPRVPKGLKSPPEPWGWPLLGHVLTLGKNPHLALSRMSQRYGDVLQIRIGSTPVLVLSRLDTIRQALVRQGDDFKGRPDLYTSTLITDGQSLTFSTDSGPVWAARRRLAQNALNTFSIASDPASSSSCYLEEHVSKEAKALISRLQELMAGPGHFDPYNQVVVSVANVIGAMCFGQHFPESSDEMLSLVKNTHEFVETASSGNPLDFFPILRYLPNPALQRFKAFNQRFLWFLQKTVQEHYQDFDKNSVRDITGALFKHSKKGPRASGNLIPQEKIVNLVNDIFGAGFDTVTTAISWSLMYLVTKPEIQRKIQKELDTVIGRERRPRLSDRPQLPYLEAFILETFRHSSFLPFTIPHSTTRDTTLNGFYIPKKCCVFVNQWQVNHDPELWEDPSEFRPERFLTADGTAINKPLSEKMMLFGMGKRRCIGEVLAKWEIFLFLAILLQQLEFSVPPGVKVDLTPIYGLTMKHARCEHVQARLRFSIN
UniProt P11712, whole entry, looked up: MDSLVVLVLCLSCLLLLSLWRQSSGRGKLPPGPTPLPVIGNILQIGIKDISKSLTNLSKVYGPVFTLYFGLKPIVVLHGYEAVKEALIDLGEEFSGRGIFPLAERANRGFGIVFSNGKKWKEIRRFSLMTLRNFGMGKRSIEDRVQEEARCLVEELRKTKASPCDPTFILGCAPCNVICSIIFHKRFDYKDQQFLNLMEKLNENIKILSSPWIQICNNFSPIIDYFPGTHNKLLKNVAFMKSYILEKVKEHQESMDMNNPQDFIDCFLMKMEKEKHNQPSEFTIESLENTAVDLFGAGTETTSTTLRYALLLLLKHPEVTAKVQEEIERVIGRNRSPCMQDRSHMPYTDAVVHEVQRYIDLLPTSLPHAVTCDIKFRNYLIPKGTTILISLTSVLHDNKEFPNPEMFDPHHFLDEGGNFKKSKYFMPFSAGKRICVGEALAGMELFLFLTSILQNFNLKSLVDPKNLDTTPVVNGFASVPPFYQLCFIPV
UniProt P33261, whole entry, looked up: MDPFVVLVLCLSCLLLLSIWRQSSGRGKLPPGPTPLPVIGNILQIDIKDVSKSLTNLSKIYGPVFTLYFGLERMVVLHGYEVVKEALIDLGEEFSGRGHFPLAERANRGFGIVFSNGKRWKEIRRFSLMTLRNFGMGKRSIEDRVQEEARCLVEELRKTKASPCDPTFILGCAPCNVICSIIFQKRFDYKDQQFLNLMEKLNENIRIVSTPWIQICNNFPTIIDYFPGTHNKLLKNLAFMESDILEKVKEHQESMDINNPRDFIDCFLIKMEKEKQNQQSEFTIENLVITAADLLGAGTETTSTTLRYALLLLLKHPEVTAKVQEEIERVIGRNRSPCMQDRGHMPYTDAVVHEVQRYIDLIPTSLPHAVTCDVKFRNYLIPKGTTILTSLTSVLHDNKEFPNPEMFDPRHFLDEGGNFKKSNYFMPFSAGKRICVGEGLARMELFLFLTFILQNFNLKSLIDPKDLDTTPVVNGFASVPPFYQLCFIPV
UniProt P10635, whole entry, looked up: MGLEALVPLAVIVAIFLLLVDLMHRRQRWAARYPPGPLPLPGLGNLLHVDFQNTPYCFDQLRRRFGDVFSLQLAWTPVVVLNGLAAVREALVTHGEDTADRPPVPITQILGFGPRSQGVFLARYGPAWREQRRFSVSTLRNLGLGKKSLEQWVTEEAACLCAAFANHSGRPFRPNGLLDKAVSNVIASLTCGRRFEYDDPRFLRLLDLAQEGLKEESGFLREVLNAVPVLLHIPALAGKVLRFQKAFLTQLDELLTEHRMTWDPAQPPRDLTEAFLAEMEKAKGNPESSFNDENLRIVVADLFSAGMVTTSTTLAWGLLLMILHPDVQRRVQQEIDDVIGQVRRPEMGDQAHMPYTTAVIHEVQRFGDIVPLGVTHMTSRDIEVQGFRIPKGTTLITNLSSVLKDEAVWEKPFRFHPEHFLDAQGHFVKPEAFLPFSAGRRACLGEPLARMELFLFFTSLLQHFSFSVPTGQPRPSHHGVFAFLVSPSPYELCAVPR
UniProt P08684, whole entry, looked up: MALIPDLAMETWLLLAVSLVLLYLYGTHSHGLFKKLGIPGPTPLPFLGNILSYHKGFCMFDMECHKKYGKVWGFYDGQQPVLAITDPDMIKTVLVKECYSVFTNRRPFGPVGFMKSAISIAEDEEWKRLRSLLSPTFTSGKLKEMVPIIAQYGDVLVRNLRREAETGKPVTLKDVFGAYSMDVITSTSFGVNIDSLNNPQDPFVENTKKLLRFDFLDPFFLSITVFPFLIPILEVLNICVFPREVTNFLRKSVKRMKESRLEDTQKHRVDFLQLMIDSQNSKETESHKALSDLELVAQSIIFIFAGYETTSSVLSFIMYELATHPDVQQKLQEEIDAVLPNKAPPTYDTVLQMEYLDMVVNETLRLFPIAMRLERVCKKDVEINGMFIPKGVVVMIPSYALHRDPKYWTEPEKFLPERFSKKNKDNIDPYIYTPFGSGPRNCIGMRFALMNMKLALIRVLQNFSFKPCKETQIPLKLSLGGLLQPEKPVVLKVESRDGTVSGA

Key:
[1] = biological target: Photinus pyralis (firefly) luciferase (Photinus pyralis, UniProt P08659); assay: Luciferase counter-screen assay; format: biochemical; conditions: mean ± standard deviation from three experiments
[2] = biological target: human CYP1A2 (Homo sapiens, UniProt P05177); conditions: mean ± standard deviation from three experiments; for CYP1A2 Efficacy (in parenthesis): negative = inhibition; for IC50: read-out: CYP1A2 IC50 (half-maximal inhibitory concentration)
[3] = biological target: human CYP2C9 (Homo sapiens, UniProt P11712); conditions: mean ± standard deviation from three experiments; for CYP2C9 Efficacy (in parenthesis): negative = inhibition; for IC50: read-out: CYP2C9 IC50 (half-maximal inhibitory concentration); for AC50: read-out: CYP2C9 AC50 (half-maximal activity concentration), activity call in words where no AC50
[4] = biological target: human CYP2C19 (Homo sapiens, UniProt P33261); conditions: mean ± standard deviation from three experiments; for CYP2C19 Efficacy (in parenthesis): negative = inhibition; for IC50: read-out: CYP2C19 IC50 (half-maximal inhibitory concentration)
[5] = biological target: human CYP2D6 (Homo sapiens, UniProt P10635); conditions: mean ± standard deviation from three experiments; for CYP2D6 Efficacy (in parenthesis): negative = inhibition; for IC50: read-out: CYP2D6 IC50 (half-maximal inhibitory concentration), qHTS
[6] = biological target: CYP3A4 (Homo sapiens, UniProt P08684); conditions: mean ± standard deviation from three experiments; for CYP3A4 Efficacy (in parenthesis): negative = inhibition, positive = activation; for IC50: read-out: CYP3A4 IC50 (half-maximal inhibitory concentration), qHTS, positive efficacy = activation; for AC50: read-out: CYP3A4 AC50 (half-maximal activity concentration)
[7] = activity call in words where no AC50

| SMILES | Luciferase IC50 (half-maximal inhibitory concentration) [1] | CYP1A2 Efficacy (in parenthesis) [2] [%] | IC50 ([2]; qHTS) [µM] | CYP2C9 Efficacy (in parenthesis) [3] [%] | IC50 ([3]; qHTS) [µM] | CYP2C19 Efficacy (in parenthesis) [4] [%] | IC50 ([4]; qHTS) [µM] | CYP2D6 Efficacy (in parenthesis) [5] [%] | IC50 [5] [µM] | CYP3A4 Efficacy (in parenthesis) [6] [%] | IC50 [6] [µM] | AC50 [3] [µM] | CYP2D6 AC50 (half-maximal activity concentration) [5, 7] | AC50 [6, 7] [µM] | further results |
| --- | --- | --- | --- | --- | --- | --- | --- | --- | --- | --- | --- | --- | --- | --- | --- |
| CC(C)OP(=S)(OC(C)C)SCCNS(=O)(=O)c1ccccc1 | Inactive | -99 ± 4 | 12.6 | -97 ± 2 | 1.62 | -143 ± 6 | 0.16 | -88 ± 5 | 35.7 | -89 ± 1 | 0.6 |  |  |  |  |
| Cc1cccc([N+](=O)[O-])c1[N+](=O)[O-] |  |  |  |  |  |  |  |  |  |  |  |  |  |  | CYP2C9 AC50 (half-maximal activity concentration) ([3]; words = activity call): Inactive; CYP2C19 AC50 (half-maximal activity concentration) ([4]; words = activity call): Inconclusive inhibitor; CYP2D6 AC50 (half-maximal activity concentration) ([5]; words = activity call): Inconclusive inhibitor; AC50 ([6]; words = activity call): 6.52 µM |
| CN(C(=O)Cc1cccc2occc12)[C@H]1CC[C@@]2(CCCO2)C[C@@H]1N1CCCC1 | Inactive | -44 ± 13 | 49.1 | -77 ± 8 | 34.2 | -104 ± 16 | 57.9 | -78 ± 2 | 0.18 | -67 ± 7 | 20 |  |  |  |  |
| Cc1cc([N+](=O)[O-])c(O)c([N+](=O)[O-])c1 |  |  |  |  |  |  |  |  |  |  |  | 35 | Inconclusive inhibitor | 28.4 | CYP1A2 AC50 (half-maximal activity concentration) [2, 7]: Inconclusive inhibitor; CYP2C19 AC50 (half-maximal activity concentration) [4, 7]: Inactive |
| Cc1cc([N+](=O)[O-])cc([N+](=O)[O-])c1O |  |  |  |  |  |  |  |  |  |  |  | 21.7 | Inconclusive inhibitor | 29.4 | AC50 ([2]; read-out: CYP1A2 AC50 (half-maximal activity concentration), activity call in words where no AC50): 56.6 µM; AC50 ([4]; read-out: CYP2C19 AC50 (half-maximal activity concentration), activity call in words where no AC50): 63.7 µM |
| CN(C(=O)Cc1ccc(Cl)c(Cl)c1)C1CCC2(CCCO2)CC1N1CCCC1 (stereo not shown) | Inactive |  |  |  |  |  |  | -102 ± 7 | 4.21 | -77 ± 1 |  |  |  |  | CYP1A2 IC50 (half-maximal inhibitory concentration) ([2]; qHTS): Inactive; CYP2C9 IC50 (half-maximal inhibitory concentration) ([3]; qHTS): Inactive; CYP2C19 IC50 (half-maximal inhibitory concentration) ([4]; qHTS): Inactive |

Like-named read-outs stand apart in the source and are kept apart here.
